Literature values as cited in patent US20140187505A1, “Cardiac Glycosides to Treat Cystic Fibrosis and Other IL-8 Dependent Disorders” (priority 2002, published 2014).

Details: octanol/water (20 mM TRIS-HCl, pH 7.4); cited from earlier work

Dihydro-digoxin
P (partition coefficient in octanol/water system): 25.0 ± 4.7
